Test results from patent US10023622B2, “Method of immunization for reducing toxic damaged caused by oligomeric form of the amyloid-beta protein with stable amyloid beta monomers and oligomers” (ALZINOVA AB, priority 2008, dated 2018).

Experiments:
[1] = Fibrillation assay monitored by Thioflavin T (TFT) binding; format: physicochemical; details: 117 μM peptide, 37° C. with shaking
Experimental: All concentration determinations were carried out spectrophotometrically using an extinction coefficient of 1424 cm^−1 M^−1 for the difference in absorption at 280 nm and 300 nm. The buffered solution used in all examples was 50 mM K^+ phosphate, 50 mM NaCl, pH 7.2, unless otherwise stated. This buffer was also the storage buffer for the Aβ peptides. All peptide samples were prepared fresh, kept at 4° C., and used within 3-4 days.
Fibrillation assays were carried out by monitoring the enhanced fluorescence of the dye TFT upon binding to the fibrils (Levine, H., Methods Enzymol. 309: 274-284 (1999)). Fluorescence was recorded in 96-well plates (Nunc) using a FLUOstar Optima reader (BMG) equipped with 440 nm excitation and 480 nm emission filters. […] The assay was carried out at 37° C., and data points were recorded every 6 min with 2 min of orbital shaking (width 5 mm) preceding each measurement.
The fibrillation assay was carried out as in example 1, except that the concentration of peptide was also assayed at 50, 150, and 250 μM, and the TCEP concentration was increased to 10 mM TCEP in the reference samples. Also, data points were recorded every 15 min with 5 min of orbital shaking (width 5 mm) preceding each measurement.
The fibrillation assay was carried out as in example 2 with the exception that data points were recorded every 10 min. […]

A11 polyclonal antibody [2] = format: physicochemical, rabbit
Experimental: A 80-kDa fraction of Aβ(40) A21C/A30C peptide obtained as in example 5 was concentrated to 20 μM and incubated at 37° C. in 50 mM K^+ phosphate buffer, 50 mM NaCl, and 0.05% azide. Samples were removed at regular intervals during a two-month period and stored at −24° C. until analysis. […] The fluorescence intensity decreased with only 0.1% per day. A related experiment on a monomeric fraction of Aβ(40) A21C/A30C peptide obtained from the same SEC as above was concentrated to 90 μM and incubated at 37° C. in 50 mM K^+ phosphate buffer, 50 mM NaCl, and 0.05% azide. […] A similar sample of monomeric Aβ(42) A21C/A30C peptide obtained as in example 5 and concentrated to 50 μM was incubated at 37° C. in 50 mM K^+ phosphate buffer, 50 mM NaCl, and 0.05% azide was probed for A11 binding.

A11 polyclonal antibody [3] = experiment: Dot blot of SEC fractions for A11 antibody binding; set-up: species or system rabbit; details: Sephacryl S300 16/60 column, cutoff approximately ≥1500 kDa (FIG. 14)
Experimental: All fractions of the earlier peak and of the later peak were assayed for A11 (Biosource) binding according to the manufacturer's instructions. 3 μl of each fraction was dot blotted on an Immobilion-P^SQ polyvinylidene fluoride (PVDF) membrane (Millipore) and allowed to dry. The membrane was then blocked over night (approximately 14 h) in 4° C. in 10% non-fat dry milk dissolved in 20 mM Tris-HCl, 140 mM NaCl, 0.01% Tween 20, pH 7.4 (TBST buffer). The membrane was then washed three times with TBST buffer for five minutes, and the A11 primary antibody (Biosource) at 0.5-0.8 μg ml^−1 in 5% non-fat dry milk dissolved in TBST buffer was applied to the membrane for 1 h at room temperature (21° C.). After washing away unbound antibody three times with TBST buffer for five minutes, the secondary antibody (a donkey ECL™ anti-rabbit IgG horseradish peroxidase conjugate from GE Healthcare) at 0.1 μg ml^−1 in 5% non-fat dry milk dissolved in TBST buffer was added to the membrane for 45-60 min at room temperature (21° C.). After washing away unbound antibody as above, SuperSignal West Pico chemiluminescent substrate (Pierce) was added according to the manufacturer's instructions, and horseradish peroxidase enzyme activity was detected by a CCD camera (Fujifilm LAS-1000) coupled to a dark box. […]

## CC[C@H](C)[C@H](NC(=O)[C@@H]1CSSC[C@H](NC(=O)[C@H](Cc2ccccc2)NC(=O)[C@H](Cc2ccccc2)NC(=O)[C@@H](NC(=O)[C@H](CC(C)C)NC(=O)[C@H](CCCCN)NC(=O)[C@H](CCC(N)=O)NC(=O)[C@H](Cc2c[nH]cn2)NC(=O)[C@H](Cc2c[nH]cn2)NC(=O)[C@@H](NC(=O)[C@H](CCC(=O)O)NC(=O)[C@H](Cc2ccc(O)cc2)NC(=O)CNC(=O)[C@H](CO)NC(=O)[C@H](CC(=O)O)NC(=O)[C@H](Cc2c[nH]cn2)NC(=O)[C@H](CCCNC(=N)N)NC(=O)[C@H](Cc2ccccc2)NC(=O)[C@H](CCC(=O)O)NC(=O)[C@H](C)NC(=O)[C@H](CC(=O)O)NC(=O)[C@@H](N)CCSC)C(C)C)C(C)C)C(=O)N[C@@H](CCC(=O)O)C(=O)N[C@@H](CC(=O)O)C(=O)N[C@@H](C(C)C)C(=O)NCC(=O)N[C@@H](CO)C(=O)N[C@@H](CC(N)=O)C(=O)N[C@@H](CCCCN)C(=O)NCC(=O)N1)C(=O)N[C@H](C(=O)NCC(=O)N[C@@H](CC(C)C)C(=O)N[C@@H](CCSC)C(=O)N[C@H](C(=O)NCC(=O)NCC(=O)N[C@H](C(=O)N[C@H](C(=O)N[C@H](C(=O)N[C@@H](C)C(=O)O)[C@@H](C)CC)C(C)C)C(C)C)C(C)C)[C@@H](C)CC [Aβ(42) A21C/A30C]
[1]; 10 mM TCEP
  Fibrillation (TFT fluorescence), reduced sample: commences immediately
[1]; formed disulphide bond, 42-h assay
  Fibrillation (TFT fluorescence), oxidized samples: remain non-fibrillized
A11 polyclonal antibody [2]; monomeric peptide, 50 μM, 37° C.
  Appearance of A11 epitope in monomeric sample on incubation: displayed the A11 epitope already after a few days
A11 polyclonal antibody [2]; rabbit
  t1/2 of oligomerization into high molecular weight oligomers: 52.8 h
A11 polyclonal antibody [3]
  A11 binding of SEC fractions: A11-binding species elutes in the void
